{
  "source": "paper PMC8780785",
  "about": "“Bioactive Properties of a Novel Antibacterial Dye Obtained from Laccase-Mediated Oxidation of 8-Anilino-1-naphthalenesulfonic Acid” (Molecules, 2022)",
  "key": {"S. aureus ATCC 25923": {"system": "S. aureus ATCC 25923", "test": "MIC and MBC determination (CLSI protocol), S. aureus", "type": "cell-based", "conditions": "Staphylococcus aureus, ATCC25923, 24 h, read-out: MIC S. aureus", "procedure": "(§1) The stock solutions (10 mg/mL) of the tested substances were prepared in distilled water and afterwards diluted to the appropriate concentration in Mueller–Hinton Bullion. In each well of a 96-well plate, 300 µL of the mixture was inoculated with 10 µL of the bacterial culture (final density~10^2 cfu/mL). […] Then, 10 µL of the suspension from each well was transferred to a fresh sterile medium and incubated for another 24 h at 37 °C. The lack of turbidity indicated bactericidal activity of the investigated substances and the MBC value was thus determined."}, "[1]": {"system": "S. epidermidis ATCC 14990", "test": "MIC and MBC determination (CLSI protocol), S. epidermidis", "type": "cell-based", "conditions": "Staphylococcus epidermidis, ATCC14990, 24 h, read-out: MIC S. epidermidis", "procedure": "as §1"}},
  "data": [
    {"smiles": "O=S(=O)(O)c1cccc2cccc(Nc3ccccc3)c12", "note": "[ANS, 8-anilino-1-naphthalenesulfonic acid]", "values": [
      {"measurement": "MIC", "setting": "S. aureus ATCC 25923", "value": 200, "unit": "µg/mL"},
      {"measurement": "MIC", "setting": "[1]", "value": 25, "unit": "µg/mL"}
    ]}
  ]
}
